A selection: hits, their analogues and other compounds. The true share with any hit is near 16%.
miR-21 reporter – miR-21 reporter, rising signal; HeLa miR-21 FLuc reporter, luciferase, 48 h; Potency, µM (doses to about 38.3 µM), for inactives: at the highest dose reporter change, positive = more light; 340,000 tested, under 10 active; AID 2288; active = well fitted rising curve with a large enough effect; inconclusive = small, poorly fitted or top-dose-only effect; inactive = no such curve, though single readings can be large or run the other way;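 further: % of control where 0% means no effect; miR-21 action dims this reporter so a rising signal means less miR-21 action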
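HeLa cells stably expressing CMV-driven firefly luciferase with a downstream miR-21 binding sequence, endogenously expressing miR-21, were treated with titrations (up to about 40uM final) for 48 hours at 37 degree Celsius. Luciferase luminescence was read after lysis.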
uPA generation – cell surface uPA generation inhibition; cell surface uPA generation assay, qHTS; Potency, µM (doses to about 38.3 µM), without a hit: top-dose activity change, negative = inhibition, usual class: inhibitors; hit rate 0.31% among 330,000; active = well fitted inhibition curve with a large enough effect; inconclusive = small, poorly fitted or top-dose-only effect; inactive = no such curve, though single readings can be large or run the other way; tested in mouse RAW 264.7 cells; also: potency is read from the fitted curve at half-maximal effect; % is scaled to controls: 0 for no effect and ±100 for the full control effect; nearly all actives have a fitted effect of over 55% in size
TDP1 cell CPT – DT40-hTDP1 cell growth loss with CPT. chicken DT40 Tdp1-/-;hTDP1 cells + 20 nM CPT, ATP luminescence, 48 h. Potency, µM (doses to about 46.2 µM), for inactives: at the top dose activity change, negative = growth inhibition, hits mostly inhibitors. hit rate 12% among 420,000. AID 686979; also: potency is read from the fitted curve at half-maximal effect; % is scaled to controls: 0 for no effect and ±100 for the full control effect; nearly all actives have a fitted effect of over 55% in size
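Chicken DT40 Tdp1-/- cells complemented with human TDP1, 400 cells/well, exposed to compounds plus 20 nM camptothecin for at least 48 h at 37 C; viability read as ATP content by CellTiter-Glo luminescence.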
TDP1 cell noCPT – qHTS for Inhibitors of human tyrosyl-DNA phosphodiesterase 1 (TDP1): qHTS in cells in absence of CPT. DT40 Tdp1-/- hTDP1 cells, no CPT, ATP luminescence, 48 h. Potency, µM (highest dose often 46.2 µM), for the others: at the top dose activity change, negative = growth inhibition, usual class: inhibitors. hit rate 15% among 420,000; also: potency is read from the fitted curve at half-maximal effect; % is scaled to controls: 0 for no effect and ±100 for the full control effect; nearly all actives have a fitted effect of over 55% in size
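Chicken DT40 Tdp1-/- cells complemented with human TDP1, screened without camptothecin (DMSO vehicle only), 400 cells/well. Compounds pin-transferred, cells incubated at 37 °C for at least 48 hr. Growth read as ATP-dependent luminescence (CellTiter-Glo, 30 min at RT).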
TDP1 block – inhibitors of human tyrosyl-DNA phosphodiesterase TDP1; recombinant TDP1, AlphaScreen DNA substrate cleavage; Q9NUW8; Potency, µM (doses to about 130 µM), inactives show top-dose activity change, negative = inhibition, hits mostly inhibitors; AID 485290; hit rate 0.28% among 350,000; also: potency is read from the fitted curve at half-maximal effect; % is scaled to controls: 0 for no effect and ±100 for the full control effect; nearly all actives have a fitted effect of over 40% in size
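Recombinant E. coli-expressed Tdp1 (1 nM) preincubated with compound 15 min at RT, then 5'-biotin/3'-phosphotyrosine-FITC DNA substrate (15 nM) added for 5 min. AlphaScreen beads (10 ug/ml) added, 10 min RT; tyrosine-FITC cleavage read as signal loss.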
The depositor's hits bear a star; ? = inconclusive; / = not tested or not shown. Unless noted, calls follow the shape of the dose curve; as a rule, active = well fitted curve in the direction sought with a large enough effect; inconclusive = small, poorly fitted or top-dose-only effect, or another doubt; inactive = no such curve, though single readings can be large; an effect the other way counts as inactive or inconclusive.

SMILES | miR-21 reporter | uPA generation | TDP1 cell CPT | TDP1 cell noCPT | TDP1 block
CCC(C)C(=O)OC1C[C@@]2(C)C(c3ccoc3)OC(=O)CC23OC2(C)OC34C(OC(=O)C(C)C)[C@]3(O)C(OC(=O)C5(C)OC5C)[C@]5(C)CC3(O)[C@](C)(C5CC(=O)OC)C14O2 (stereo partly specified) | / | / | ? | ? | 1%
COc1ccc(C(=O)N2CCN(c3nc4c(OC)cccc4s3)CC2)cc1OC | 12% | / | 18µM* | 15µM* | 0%
Cn1c(O)c(C2=NN(C(=O)CCl)C(c3ccccc3)C2)c(=O)n(C)c1=O (stereo unspecified) | 3% | 7% | ? | -27% | 5%
CCC(=O)N1N=C(c2c(O)n(C)c(=O)n(C)c2=O)CC1c1ccccc1 (stereo unspecified) | 5% | -9% | 3.7µM* | 4.1µM* | 7%
CN(C)P(=O)(N(C)C)N1CC1 | / | -3% | -16% | -4% | /
CCCCN1CCC(O)(c2ccccc2)C(C(=O)c2ccccc2)C1 (stereo unspecified) | -4% | -4% | 2.9µM* | 2.9µM* | 2%
N#CC1c2ccccc2C=CN1C(=O)c1ccc(N(CCCl)CCCl)cc1 (stereo unspecified) | / | / | 23µM* | 18µM* | /
N#Cc1ccc(C(=O)N2Cc3cnnn3-c3ccccc3C2C#N)cc1 (stereo unspecified) | / | 0% | 8% | 1% | /
COc1ccc(NC(=O)N2CC[C@@]3(CCCN(C(=O)Oc4ccccc4)C3)C2)cc1 | / | / | 8% | -2% | /
COc1ccc(OC(=O)N2C/C(=C/c3ccccc3)C(=O)/C(=C\c3ccccc3)C2)cc1 | / | -12% | 1.2µM* | 1.5µM* | /
CN(CCc1ccccc1)C(=O)c1ccc(NC(=O)Cc2cccc([N+](=O)[O-])c2)cc1 | / | 5% | ? | ? | 4%
COc1cc([C@@H]2c3cc4c(c(O)c3C[C@H]3COC(=O)[C@@H]32)OCO4)cc(OC)c1OC | / | / | 0.16µM* | 0.13µM* | -7%

Another view of some results above:
canonical_smiles: N#CC1c2ccccc2C=CN1C(=O)c1ccc(N(CCCl)CCCl)cc1 (stereo unspecified)
  miR-21 reporter = /	uPA generation = /	TDP1 cell CPT = 23µM*	TDP1 cell noCPT = 18µM*	TDP1 block = /

canonical_smiles: N#Cc1ccc(C(=O)N2Cc3cnnn3-c3ccccc3C2C#N)cc1 (stereo unspecified)
  miR-21 reporter = /	uPA generation = 0%	TDP1 cell CPT = 8%	TDP1 cell noCPT = 1%	TDP1 block = /

canonical_smiles: COc1ccc(NC(=O)N2CC[C@@]3(CCCN(C(=O)Oc4ccccc4)C3)C2)cc1
  miR-21 reporter = /	uPA generation = /	TDP1 cell CPT = 8%	TDP1 cell noCPT = -2%	TDP1 block = /

Later entries
SMILES | miR-21 reporter | uPA generation | TDP1 cell CPT | TDP1 cell noCPT | TDP1 block
COc1cc(C2c3cc4c(c(O)c3CC3COC(=O)C32)OCO4)cc(OC)c1OC (stereo unspecified) | / | -7% | 0.092µM* | 0.12µM* | 1%
Cc1cnn(-c2cc(Oc3ccccc3)ncn2)c1 | -61% | -2% | -4% | 5% | -5%
COC(=O)C1=C(c2c(C)noc2C)C[C@@H]2CC[C@H]1N2C(=O)NCC1CC1 | / | 1% | 3% | 2% | -3%
Cc1nn(C(C)(C)C)c(C)c1/C=N/OC(=O)Nc1ccc(Cl)c(Cl)c1 | 27% | -5% | 15µM* | 16µM* | 6%
Cc1ccc(NC(=O)c2snnc2C)cc1Cl | -39% | -2% | 12% | -2% | -2%
N#Cc1c(Cl)nc(Cl)c2c1CCN(Cc1ccccc1)C2 | 7% | -6% | ? | 16µM* | 3%
CC(C)(C)c1ccc(O)cc1 | / | / | 4% | 1% | 4%
O=P(Oc1ccc(-c2ccccc2)cc1)(N1CC1)N1CC1 | / | 2% | 2.1µM* | 9.2µM* | /
O=C(Oc1ccc(Cl)cc1)N1CCOCC1 | 0% | 0% | ? | ? | /
O=P(Oc1ccc(Cl)cc1)(N1CC1)N1CC1 | / | 3% | 6.5µM* | ? | /
COC(=O)C(O)(c1ccc(N(C)C(=O)c2cccs2)cc1)C(F)(F)F (stereo unspecified) | -5% | -6% | 3.3µM* | ? | 3%
COC(=O)C(O)(c1ccc(N(C)C)cc1)C(F)(F)F (stereo unspecified) | -1% | 1% | 0% | 0% | 0%
CCOC(=O)C(O)(c1ccc(NC(=O)c2ccc(Cl)c(Cl)c2)cc1)C(F)(F)F (stereo unspecified) | 7% | -3% | ? | 16µM* | 7%
CCOC(=O)C(O)(c1ccc(NC(=O)NC2CCCCC2)cc1)C(F)(F)F (stereo unspecified) | -37% | / | -24% | ? | 4%
CCOC(=O)C(=CNc1ccc(C(O)(C(=O)OCC)C(F)(F)F)cc1C)C(=O)OCC (stereo unspecified) | 8% | -13% | 21µM* | 12µM* | -1%
COC(=O)C(O)(c1ccc(N(C)C(=O)c2ccc(Cl)c(Cl)c2)cc1)C(F)(F)F (stereo unspecified) | 0% | -3% | ? | ? | 0%
CCOC(=O)C(O)(c1ccc(N(C)C(=O)c2ccc(Cl)c(Cl)c2)cc1)C(F)(F)F (stereo unspecified) | -4% | -3% | 21µM* | 13µM* | 0%
Cc1cc(N2CCNCC2)nc2ccccc12 | -4% | 5% | -9% | ? | /
COc1ccc(-c2nn(CCC#N)cc2C(=O)NCc2ccccc2)cc1OC | -4% | 5% | -18% | -11% | /
O=C(NCC1=C(c2ccc3ccccc3c2)C[C@@H]2CC[C@H]1N2Cc1ccco1)c1cccnc1 | / | / | -27% | ? | /
COCCn1c(SCc2ccccc2Cl)nc2c1c(=O)[nH]c(=O)n2C | -38% | -2% | ? | ? | 2%
COc1ccc(CCn2c(NN=C3CCCCC3)nc3c2c(=O)[nH]c(=O)n3C)cc1 | 12% | -8% | ? | 16µM* | /
CCOc1cc2c(cc1OCC)-n1cccc1C(c1ccccc1OC)NC2 (stereo unspecified) | 7% | -6% | ? | 26µM* | /
CCOc1cc2c(cc1OCC)-n1cccc1C(c1ccc(OC)c(OC)c1)NC2 (stereo unspecified) | 7% | -30% | ? | ? | /
CCOc1cc2c(cc1OCC)-n1cccc1C(c1c(O)cccc1OC)NC2 (stereo unspecified) | 9% | 0% | 13µM* | 10µM* | /
CCOc1cc2c(cc1OCC)-n1cccc1C(c1cccc(F)c1F)NC2 (stereo unspecified) | 4% | -9% | ? | 23µM* | /
CCOc1cc2c(cc1OCC)-n1cccc1C(c1ccccc1O)NC2 (stereo unspecified) | -5% | 1% | 23µM* | ? | /
CCCCCCCCCCCCCC(=O)O[C@@H]1[C@@H](C)[C@@]2(O)[C@H](C=C(CO)C[C@]3(O)C(=O)C(C)=C[C@@H]23)[C@@H]2C(C)(C)C12OC(C)=O (stereo partly specified) | / | / | / | / | 16%
CC(C)(C)c1cc(OC(=O)Cc2ccccc2)ccc1O | -5% | -28% | -25% | -16% | /
C/C=C1/CN2CC[C@]34C(=C(C=O)[C@H]1C[C@@H]23)Nc1ccccc14 | / | / | -14% | ? | 17%
COc1cccc2cc(-c3cc(=O)oc4ccc(OC(=O)N(C)C)cc34)oc12 | 1% | 2% | ? | -1% | 0%
O=C(Nc1ccccc1)c1cccn(Cc2ccccc2)c1=O | -12% | 0% | ? | ? | 6%

One compound at a time, from the list above:
`O=C(Nc1ccccc1)c1cccn(Cc2ccccc2)c1=O` is entered as miR-21 reporter: -12%; uPA generation: 0%; TDP1 cell CPT: ?; TDP1 cell noCPT: ?; TDP1 block: 6%
`CCOc1cc2c(cc1OCC)-n1cccc1C(c1c(O)cccc1OC)NC2` (stereo unspecified) is entered as miR-21 reporter: 9%; uPA generation: 0%; TDP1 cell CPT: 13µM*; TDP1 cell noCPT: 10µM*; TDP1 block: /

Bioassay records (PubChem BioAssay)
